# Experimental data from patent publication US20030236190A1.
# Target: Insulin Receptor (IR) (UniProt P06213)
# Assay: BIAcore, IR 450 nM preincubated with MBP 13 µM, over immobilised insulin; residual RU
substance,measurement,value
MBP (from UniProt P0AEX9 27-392) (other; other documents disagree on this pair),Result (RUs),209 RU
